4 molecules from patent publication US20250221987A1, “PIPERAZINO RING-CONTAINING DERIVATIVE, PHARMACEUTICALLY ACCEPTABLE SALT THEREOF, PREPARATION METHOD THEREFOR, AND APPLICATION THEREOF” (ACERAND THERAPEUTICS (HONG KONG) LIMITED, priority 2022, published 2025) can be followed below.

Sequences of proteins named here, by UniProt entry; tags and fusion partners are left off.
UniProt P09874, whole entry: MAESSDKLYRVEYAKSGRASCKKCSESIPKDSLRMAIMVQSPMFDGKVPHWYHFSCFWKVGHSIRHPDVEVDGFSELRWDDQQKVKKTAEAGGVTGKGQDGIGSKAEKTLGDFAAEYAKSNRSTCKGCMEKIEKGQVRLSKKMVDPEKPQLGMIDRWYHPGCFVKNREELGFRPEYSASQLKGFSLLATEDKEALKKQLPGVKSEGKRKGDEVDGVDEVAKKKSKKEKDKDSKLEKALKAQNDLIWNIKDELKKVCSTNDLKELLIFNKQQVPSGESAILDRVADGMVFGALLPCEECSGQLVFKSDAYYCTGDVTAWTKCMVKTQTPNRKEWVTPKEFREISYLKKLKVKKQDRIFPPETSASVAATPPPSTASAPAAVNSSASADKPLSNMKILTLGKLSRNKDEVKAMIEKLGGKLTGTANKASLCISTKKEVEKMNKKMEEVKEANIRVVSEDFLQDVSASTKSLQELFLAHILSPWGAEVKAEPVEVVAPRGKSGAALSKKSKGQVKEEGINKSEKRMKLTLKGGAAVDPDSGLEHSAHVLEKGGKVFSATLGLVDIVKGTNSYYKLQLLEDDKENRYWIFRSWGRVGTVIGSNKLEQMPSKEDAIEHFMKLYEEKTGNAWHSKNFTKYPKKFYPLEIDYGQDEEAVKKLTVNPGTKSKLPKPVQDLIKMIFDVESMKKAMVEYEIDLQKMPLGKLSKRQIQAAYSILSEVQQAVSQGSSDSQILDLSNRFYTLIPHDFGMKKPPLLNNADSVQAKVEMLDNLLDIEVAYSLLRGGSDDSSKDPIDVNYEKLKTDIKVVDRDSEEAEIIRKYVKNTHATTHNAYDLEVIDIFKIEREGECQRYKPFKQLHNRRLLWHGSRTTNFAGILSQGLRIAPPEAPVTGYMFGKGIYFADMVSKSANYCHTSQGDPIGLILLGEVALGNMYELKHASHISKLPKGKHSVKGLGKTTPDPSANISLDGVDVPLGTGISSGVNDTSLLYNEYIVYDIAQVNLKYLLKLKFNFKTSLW

One assay addresses PARP1 (Homo sapiens (Human), UniProt P09874). Briefly: PARP1 enzymatic activity assay. The assay is classed as biochemical. The settings on record: ratio IC50 (PARP2)/IC50 (PARP1).
The subject of a further assay is MDA-MB-436 cells. Briefly: Proliferation activity assay of MDA-MB-436 cells (CellTiter-Glo). The settings on record: read-out: MDA-MB-436 proliferation inhibition IC50; 4000 cells seeded, 6 days incubation. Background: ATP-based viability assays read luminescence as a measure of living cells.

`CCc1nc2c(F)cc(CN3CCN(c4ccc(C(=O)NC)nc4)C4CC[C@H]43)cc2[nH]c1=O` (stereo partly drawn): at PARP1, the PARP1/PARP2 inhibition Selectivity multiple N (N = IC50 (PARP2)/IC50 (PARP1)) was over 416. The IC50 in the assay with MDA-MB-436 cells came out at 9 nM.

For the molecule `CCc1nc2ccc(CN3CCN(c4ccc(C(=O)NC)nc4)C4CCC43)cc2[nH]c1=O` (single isomer, unassigned), the IC50 with MDA-MB-436 cells was found to be 6 nM.

Turning to `CCc1nc2ccc(CN3CCN(c4ccc(C(=O)NC)nc4F)C4CC[C@H]43)cc2[nH]c1=O` (stereo partly drawn), in the assay with MDA-MB-436 cells, the IC50 is 15 nM.

`CCc1c(F)c2ncc(CN3CCN(c4ccc(C(=O)NC)nc4)C4CC[C@H]43)cc2[nH]c1=O` (stereo partly drawn): the PARP1/PARP2 inhibition Selectivity multiple N (N = IC50 (PARP2)/IC50 (PARP1)) at PARP1 was 284. Further, the IC50 in the assay with MDA-MB-436 cells turned out to be 4 nM.
